# scFv variants of Ab-95 (light chain) against a SARS-CoV-2 spike peptide

Target peptide (SARS-CoV-2 spike, HR2 region): PDVDLGDISGINAS

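The starting antibody came from a phage panning campaign against this peptide. The library (AAYL52) carries one to three amino acid substitutions per variant, with no insertions or deletions. The assay is AlphaSeq: two haploid yeast populations carry antibody and antigen on their surface. Binding brings cells together so that they mate, and sequencing counts the barcode pairs among the diploids. Scores were corrected for input abundance and mapped to Kd with protein pairs of known affinity run in the same pool. Each pool was mated in three replicate cultures.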

Ab-95 is the parent antibody, in scFv form: VH, then three GGGGS repeats, then VL. The heavy chain is unchanged in all variants.
VH: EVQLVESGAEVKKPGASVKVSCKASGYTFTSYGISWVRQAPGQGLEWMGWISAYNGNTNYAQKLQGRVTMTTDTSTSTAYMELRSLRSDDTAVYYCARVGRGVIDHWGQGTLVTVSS
VL: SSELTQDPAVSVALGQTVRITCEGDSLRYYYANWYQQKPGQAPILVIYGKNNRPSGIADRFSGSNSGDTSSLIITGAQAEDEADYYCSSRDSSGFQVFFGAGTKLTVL

The parent's light chain CDRs are EGDSLRYYYAN, GKNNRPS, SSRDSSGFQVF; each variant's own CDRs replace them letter for letter.
Values are log10 of the apparent Kd in nM; lower means stronger binding.
Averages over replicates are reported, and they cover detected replicates only.
An entry "nd" has no value in the source: the pair was not observed among the diploids in that replicate. This suggests poor binding but is not conclusive.
Three control strains display no target. For library AAYL52, 28% of the pairings with them gave a signal, with a median of 3.91 and one signal in twenty below 2.90, so weak values seen in few replicates may be background. The control count says in how many pairings with the empty strains this scFv gave a signal.
For reference, the parent read 2.31 as the reference entry and 2.25 as a member of this library.

Variant EHDSLRYYYAN, GKNNRPP, SSRDSCGFQVF gave 3.09, nd, nd (controls 0 of 9).
Variant EGDSLRYVYQN, GKNNRPS, SSRDSSGFQVA gave nd, nd, nd (controls 1 of 9).
Variant EGDSLRYYRAN, GKNNRPG, SSRDSSGDQVF gave 3.94, 2.86, 3.17 (mean 3.32; controls 3 of 9).
Variant EGDSLRYYYAN, GMNNVPS, SSRDSSGCQVF gave 3.40, 3.66, nd (mean 3.53; controls 1 of 9).
Variant EGDSLRYYYAP, GKNNRWS, SSRDSPGFQVF gave nd, nd, nd (controls 0 of 9).
Variant EGDSLRYYYAT, GENNRPS, SSRDSSGFQVH gave 2.54, nd, 3.11 (mean 2.83; controls 2 of 9).
Variant ERDSLRYYYAN, GKNNRPS, SFRDDSGFQVF gave nd, 2.68, nd (controls 1 of 9).
Variant EGDSLRYYYGN, LKNSRPS, SSRDSSGFQVF gave 3.35, nd, nd (controls 1 of 9).
Variant EGISKRYYYAN, GKNNRPS, SSRDSSGRQVF gave 3.27, 2.98, 3.51 (mean 3.26; controls 2 of 9).
Variant EGQSLRYYYAN, GKNNRPS, SSRDDKGFQVF gave nd, nd, nd (controls 2 of 9).
Variant EGDSLRYYYAN, PKNERPS, SSRDSSGFQVD gave 4.31, 4.15, 3.79 (mean 4.08; controls 2 of 9).
Variant EGDSIRDYLAN, GKNNRPS, SSRDSSGFQVF gave 2.34, 2.82, 2.34 (mean 2.50; controls 6 of 9).
Variant EMDSLRYYYAN, GKNNRTS, SFRDSSGFQVF gave 3.39, nd, nd (controls 2 of 9).
Variant EGDSLSYYYAN, GKNNRPS, SSRDSSGEQVK gave 2.94, 2.54, 2.38 (mean 2.62; controls 4 of 9).
Variant EGDSLRYQYAN, GTNNRPS, SSRDSSGFQVC gave 2.11, 1.92, 1.46 (mean 1.83; controls 1 of 9).
Variant EGDSLRYYYAN, GQNNRPS, SSRSDSGFQVF gave 2.23, 2.19, 1.68 (mean 2.04; controls 4 of 9).
Variant EGDSLRYYYAN, GKQNRAS, SPRDSSGFQVF gave 2.76, 3.00, 2.36 (mean 2.70; controls 4 of 9).
Variant EGDSLRYYYAN, GKNNRPS, SSRDSSHVQVT gave nd, 2.90, 3.11 (mean 3.01; controls 7 of 9).
Variant EGDSLYPYHAN, GKNNRPS, SSRDSSGFQVF gave 2.70, 2.53, 2.32 (mean 2.51; controls 3 of 9).
Variant EGDSLRVYYAN, GKNNRPS, SSRLSVGFQVF gave nd, nd, 4.37 (controls 2 of 9).
Variant EGHSLGYYYAN, GKNNRPS, SSRDSSGFQVR gave 2.78, 2.68, 2.32 (mean 2.59; controls 3 of 9).
Variant EGDSPRRYYAN, VKNNRPS, SSRDSSGFQVF gave nd, nd, 3.91 (controls 3 of 9).
Variant EGDSLRYYYTN, YKNNRPS, SSRDSSGMQVF gave nd, 5.47, nd (controls 3 of 9).
Variant SGDSLRYYYAN, GKNGRPS, SSRDSSGFFVF gave 3.20, 2.88, 3.07 (mean 3.05; controls 0 of 9).
Variant EGDSLRYYYAN, GNNRRVS, SSRDSSGFQVF gave 2.59, 2.39, 2.05 (mean 2.35; controls 4 of 9).
Variant EGDSLRYYYDG, GPNNRPS, SSRDSSGFQVF gave 4.06, nd, nd (controls 5 of 9).
Variant EGDSLRYYYAN, GKNNRPS, SSRDESGFQVF gave 1.69, 1.57, 1.34 (mean 1.53; controls 2 of 9).
Variant HGDSLFYYYAN, GKLNRPS, SSRDSSGFQVF gave 5.23, nd, nd (controls 1 of 9).
Variant EGDSNRYYYAN, GKNWRPS, SSRDSSGFQCF gave nd, nd, nd (controls 2 of 9).
Variant EGGSLRYYYAN, GKNNRMS, SSRDSSGFQVI gave 2.43, 2.59, nd (mean 2.51; controls 1 of 9).
Variant ETDSLRYYYAN, GKNNRPS, SSRDGSGFQVF gave 3.69, nd, nd (controls 2 of 9).
Variant EGDSLRMYYAN, GKNNRPV, SSRDTSGFQVF gave 3.75, 3.58, 2.68 (mean 3.34; controls 0 of 9).
Variant EGTSLRYYYAN, GKNRRPS, YSRDSSGFQVF gave 3.39, 3.71, 3.67 (mean 3.59; controls 5 of 9).

Again, the first 2 entries without any signal:

CDR-L1,CDR-L2,CDR-L3,log10 Kd (nM) by replicate,mean log10 Kd (nM),empty controls
EGDSLRYVYQN,GKNNRPS,SSRDSSGFQVA,"nd, nd, nd",nd,1 of 9
EGDSLRYYYAP,GKNNRWS,SSRDSPGFQVF,"nd, nd, nd",nd,0 of 9

Data: MIT Lincoln Laboratory AlphaSeq set, Engelhart et al. 2022, doi:10.1038/s41597-022-01779-4, as distributed in FLAb.